Reference: publication PMC10726352, “Discovery of KB-0742, a Potent, Selective, Orally Bioavailable Small Molecule Inhibitor of CDK9 for MYC-Dependent Cancers” (Journal of Medicinal Chemistry, 2023)

Experiments:
[1] = system: MT-3; assay: OncoPanel Multiplexed Cytotoxicity Assay; type: cell-based
[2] = rat
[3] = mouse

SMILES	Cell Count Activity Area [1]	Vd,ss (i.v.) ([2]; i.v. 2.0 mg/kg) [L/kg]	F ([2]; p.o. 10 mg/kg) [%]	T1/2 (i.v.) ([3]; i.v. 1.0 mg/kg) [h]	F ([3]; p.o. 20 mg/kg) [%]
CN[C@@H]1C[C@H]2O[C@@](C)([C@@H]1OC)n1c3ccccc3c3c4c(c5c6ccccc6n2c5c31)C(=O)NC4 [Staurosporine]	4.02				
CCC(CC)c1cc(N[C@H]2CC[C@H](N)C2)n2nccc2n1 [Compound 28, [(1S,3S)-3-[[5-(1-Ethylpropyl)pyrazolo[1,5-a]pyrimidin-4-ium-7-yl]amino]cyclopentyl]ammonium Dichloride]		7.3	84.5	1.2	33

Read-outs that look alike come from different tables or passages of the source.
